According to publication PMC9468336, “The choanoflagellate pore-forming lectin SaroL-1 punches holes in cancer cells by targeting the tumor-related glycosphingolipid Gb3” (Communications Biology, 2022):

Molecular target: SaroL-1
Experiment: Isothermal titration calorimetry of galactosyl-ligands with SaroL-1
Type: binding, Salpingoeca rosetta
Settings: ITC, 25 °C
Description: ITC experiments were performed with MicroCaliTC200 (Malvern Panalytical). Experiments were carried out at 25 °C ± 0.1 °C. SaroL-1 and ligands samples were prepared in Buffer A. The ITC cell contained SaroL-1 in a concentration range from 0.05 mM to 0.16 mM. The syringe contained the ligand solutions in a concentration from 10 to 50 mM. 2 μL of ligands solutions were injected into the sample cell at intervals of 120 s while stirring at 750 rpm. Integrated heat effects were analysed by nonlinear regression using one site binding model (MicroCal PEAQ-ITC Analysis software). The experimental data were fitted to a theoretical curve, which gave the dissociation constant (Kd) and the enthalpy of binding (∆H).

OC[C@H]1O[C@H](O[C@@H]2[C@H](O)[C@@H](O)C(O)O[C@@H]2CO)[C@H](O)[C@@H](O)[C@H]1O (stereo partly shown) [αGal1-4Gal]
Kd: 390 ± 0.2 µM
